The data set concerns human erythrocytes. Description: Hemolysis test. The format is cell-based. The following applies: 1 h at 37° C., relative to Triton X-100. The source says: Another possibility for investigating the cytotoxicity of the peptides and peptide derivatives is the hemolysis test. The hemolytic activity is investigated on human erythrocytes (Ryge T S & Hansen P R. Potent antibacterial lysine-peptoid hybrids identified from a positional scanning combinatorial library. Bioorganic & Medicinal Chemistry 14: 4444-51, 2006), which the Leipzig University Hospital (Germany) made available as human erythrocyte concentrate in sodium chloride-adenine-glucose-mannitol buffer (stored at 4° C.). The erythrocytes were centrifuged off at 1000 g and washed three times with ten times the volume of cold phosphate-buffered saline (PBS, pH 7.4). The erythrocytes were diluted to a final concentration of 1% in PBS. […] 100 μL was taken from the supernatant, transferred to a 96-well flat-bottomed polystyrene microtiter plate (Greiner Bio-One GmbH) and the absorption was determined at 405 nm in a Sunrise microtiter plate reader (Tecan Trading AG, Mannedorf, Switzerland), to evaluate the release of the heme group. […] All hemolysis tests were carried out twice independently as double determination and the degree of hemolysis was determined from the following equation (Park Y et al. A Leu-Lys-rich antimicrobial peptide: activity and mechanism. Biochimica et Biophysica Acta-Proteins and Proteomics 1645: 172-82, 2003): Epeptide−EPBS)/ETriton−EPBS)×100% E=extinction at 405 nm

The text below walks through data of patent publication US8686113B2 (priority 2009, dated 2014).

For the compound `CC[C@H](C)[C@H](NC(=O)CN)C(=O)NCC(=O)N[C@@H](C)C(=O)N[C@H](C(=O)N[C@@H](CC(C)C)C(=O)N[C@@H](CCCCN)C(=O)N[C@H](C(=O)N[C@@H](CC(C)C)C(=O)N[C@H](C(=O)N[C@H](C(=O)NCC(=O)N[C@@H](CC(C)C)C(=O)N1CCC[C@H]1C(=O)N[C@@H](C)C(=O)N[C@@H](CC(C)C)C(=O)N[C@H](C(=O)N[C@@H](CO)C(=O)N[C@@H](Cc1c[nH]c2ccccc12)C(=O)N[C@H](C(=O)N[C@@H](CCCCN)C(=O)N[C@@H](CCCNC(=N)N)C(=O)N[C@@H](CCCCN)C(=O)N[C@@H](CCCNC(=N)N)C(=O)N[C@@H](CCC(N)=O)C(=O)N[C@@H](CCC(N)=O)C(N)=O)[C@@H](C)CC)[C@@H](C)CC)[C@@H](C)O)[C@@H](C)O)C(C)C)C(C)C` [Melittin, reference compound], the “Degree of hemolysis [%] at 600 μg/mL” value was 96.3%.
